The test system of data set [1] is HDAC. The data set is described as follows: FACTORIAL assay: similarity of TFAP to the consensus HDAC inhibitor TFAP. It counts as cell-based, human.
The conditions of data set [2]: in humans; cited from earlier work.

For `CC(C)CC(=O)O` [isovaleric acid], in data set [1], the “retrieved by querying the Attagene dataset with the HDAC TFAP” value was “retrieved”.

For the molecule `CCc1ccc(CCOc2ccc(CC3SC(=O)NC3=O)cc2)nc1` (centres unmarked) [pioglitazone], the maximum plasma concentration in data set [2] was 2.9 µM.

The values are drawn from US20210181182A1, “METHOD FOR IDENTIFICATION OF PERTURBAGENS OF PARTICULAR BIOLOGICAL PROCESSES AND CELL SYSTEMS WITHIN LIVING CELLS” (priority 2018, published 2021).
